scFv variants of Ab-95 (light chain) against a SARS-CoV-2 spike peptide

The target is the same throughout: PDVDLGDISGINAS, from the HR2 region of SARS-CoV-2 spike.

Parent scFv Ab-95: VH joined to VL by a (GGGGS)3 linker. Changes lie in the light chain CDRs alone.
VH: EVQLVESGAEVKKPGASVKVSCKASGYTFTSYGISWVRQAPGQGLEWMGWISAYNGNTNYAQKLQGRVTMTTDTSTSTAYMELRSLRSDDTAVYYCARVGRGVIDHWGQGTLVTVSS
VL: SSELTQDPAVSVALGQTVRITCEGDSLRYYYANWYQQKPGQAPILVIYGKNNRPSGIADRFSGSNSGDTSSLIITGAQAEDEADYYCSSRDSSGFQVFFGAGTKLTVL

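The starting antibody came from a phage panning campaign against this peptide. Variants in AAYL52 differ from the parent at up to three CDR positions; double and triple changes were sampled at random. Affinity was read by AlphaSeq, a pooled yeast mating assay with surface-displayed partners. Pairs that bind mate more often; barcode pairs of the diploids are counted by sequencing. A regression on co-assayed BCL2-family reference pairs converts the normalised counts of each replicate to an apparent Kd. Mating was done three times.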

Changes read parent residue, position, new residue, counted from the first residue of the VL shown.
Each Kd is an estimate from the mating assay, the geometric mean of the replicates in which the pair was seen; lower is stronger.
Where no diploid with the target was found in any replicate, the entry reads "not detected": below detection, most likely a poor binder, though not proof of it.
Entries are sorted by rising average, undetected variants last.
As a blank, each scFv also met three strains without target: over library AAYL52, 28% of these pairings were detected, typically at 8.2 µM and seldom below 800 nM. The control count says in how many pairings with the empty strains this scFv gave a signal.

changes,Kd (apparent),detected,signal with controls
Y30G/N52D,2.5 nM,3/3,5/9
Y30G/N52M/F98W,7.7 nM,3/3,1/9
R28G/Y30V/Y31G,14 nM,3/3,4/9
Y31M/S92V/F98G,58 nM,3/3,1/9
G24H/S26T/Y30T,67 nM,3/3,5/9
D25P/S55D/F98H,110 nM,3/3,2/9
Y29F/Y30P,130 nM,3/3,1/9
R28A/A32P/P54G,140 nM,3/3,0/9
Y30W/S89L,160 nM,3/3,3/9
N52E/S93L/Q96G,180 nM,3/3,3/9
E23R/D91P,270 nM,3/3,2/9
N52F/S89I/G94V,340 nM,3/3,4/9
D25I/L27Q/S55H,370 nM,3/3,5/9
R90L/Q96G,420 nM,3/3,3/9
R28Q/S92E/F98R,440 nM,3/3,2/9
Y31S/R90V/S92E,510 nM,1/3,1/9
S55T/D91Y,580 nM,3/3,0/9
P54V/S55Q,840 nM,3/3,3/9
Y30K/G49R/R53D,1.2 µM,1/3,0/9
A32C/N51S/S55C,1.3 µM,3/3,0/9
Y30T/K50W/R90D,1.4 µM,3/3,3/9
Y30K/N52F/V97I,1.5 µM,1/3,1/9
D25G/Y31A/V97G,1.5 µM,2/3,6/9
Y30C/Q96P/F98P,2.2 µM,3/3,6/9
N52R/S88V/V97I,2.5 µM,1/3,2/9
D25F/L27V/S92M,2.6 µM,3/3,5/9
R28Q/G49A/F95E,2.9 µM,3/3,3/9
L27K/G49C/R90Q,3.8 µM,1/3,4/9
N33G/P54V/S92M,4.3 µM,1/3,2/9
K50E/R90D/V97W,4.8 µM,2/3,0/9
K50C/V97D,4.9 µM,3/3,4/9

Second part, the sequence after the result:

Kd (apparent),detected,signal with controls,changes
5.0 µM,1/3,2/9,E23I/G24K/G49H
6.7 µM,2/3,1/9,N33I/K50L/Q96L
7.0 µM,2/3,4/9,D25H/N33Q/N51H
8.9 µM,2/3,2/9,R53P/D91C/S93I
9.7 µM,1/3,4/9,L27W/R28N/D91I
10 µM,2/3,4/9,G24Y/S26V/N52F
11 µM,2/3,1/9,D91Y/G94P/F95R
11 µM,1/3,1/9,N52E/D91K/Q96R
11 µM,1/3,2/9,S93E/V97A
18 µM,2/3,2/9,G24V/D25Q/D91Y
31 µM,3/3,3/9,E23D/R53M/S89G
35 µM,1/3,4/9,L27D/D91F/V97S
36 µM,2/3,4/9,S26N/K50F/R90P
39 µM,2/3,2/9,Y29I/N52Y
41 µM,1/3,2/9,G24V/Y29Q/A32L
44 µM,2/3,7/9,R53Y/D91W/G94D
49 µM,3/3,3/9,D25F/L27C/S88M
76 µM,1/3,4/9,E23P/R28I/R90C
110 µM,2/3,5/9,S26K/Q96S
230 µM,1/3,2/9,N33W/N51W/R90T
not detected,0/3,2/9,G24W/G49N/V97F
not detected,0/3,3/9,S26I/K50T/V97S
not detected,0/3,0/9,D25T/Y30R/S89R
not detected,0/3,1/9,G24A/N33R/S92V
not detected,0/3,1/9,G24I/G94C/V97N
not detected,0/3,2/9,E23G/S26C/Y31L
not detected,0/3,0/9,S89T/R90D/F95E
not detected,0/3,2/9,G24A/L27I/S93L
not detected,0/3,0/9,N52A/P54R/V97D
not detected,0/3,1/9,S89N/R90D/S93F
not detected,0/3,1/9,D25V/S55R/S88T

For reference, 7 entries of the list once more:

changes,Kd (apparent),detected,signal with controls
G24W/G49N/V97F,not detected,0/3,2/9
E23P/R28I/R90C,76 µM,1/3,4/9
N52F/S89I/G94V,340 nM,3/3,4/9
D91Y/G94P/F95R,11 µM,2/3,1/9
Y30G/N52D,2.5 nM,3/3,5/9
Y29I/N52Y,39 µM,2/3,2/9
K50C/V97D,4.9 µM,3/3,4/9

Reference: Engelhart et al. 2022, doi:10.1038/s41597-022-01779-4. File: FLAb, binding data.